Experiment [1] has as its target T1, Human LPA1 (Homo sapiens, UniProt Q92633). Briefly: Beta-Arrestin based assay for human LPA1R antagonists (PathHunter). To be noted: read-out: Beta Arrestin EC50; CHO cells stably expressing ProLink tagged human LPA1R; agonist LPA 0.5 micromolar. The protocol: Beta-Arrestin Based Assays for Human LPA1R Antagonists and Agonists
A CHO cell line stably expressing the ProLink™ tagged human LPA1R was obtained from DiscoverX Inc, Fremont, Calif. In this system, β-Arrestin was fused to an N-terminal deletion mutant of β-galactosidase (termed the enzyme acceptor or EA), the human LPA1R was fused to a smaller (42 amino acids) weakly complementing fragment termed ProLink™. […] Cell handling and assays were performed according to protocols specified in the PathHunter® assays kits (DiscoverX, Fremont, Calif.). Assays were performed in quadruplicate in white 384 well plates. End point luminescence data were plotted and fit to a 4 parameter logistic function to obtain IC50 values. For antagonist assays, an […] concentration of agonist (LPA) equal to 0.5 micromolar was used.

Amino acid sequences for entries named in this document (tags omitted).
UniProt Q92633, whole entry: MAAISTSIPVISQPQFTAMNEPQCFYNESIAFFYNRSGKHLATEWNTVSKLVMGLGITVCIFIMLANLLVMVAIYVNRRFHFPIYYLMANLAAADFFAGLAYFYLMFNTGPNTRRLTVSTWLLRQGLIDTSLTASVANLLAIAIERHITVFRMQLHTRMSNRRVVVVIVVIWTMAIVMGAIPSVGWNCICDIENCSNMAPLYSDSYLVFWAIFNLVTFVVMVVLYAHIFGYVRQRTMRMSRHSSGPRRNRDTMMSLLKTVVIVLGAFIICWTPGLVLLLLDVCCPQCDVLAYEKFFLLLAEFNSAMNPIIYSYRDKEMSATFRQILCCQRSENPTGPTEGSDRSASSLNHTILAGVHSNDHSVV
UniProt Q9UBY5, whole entry: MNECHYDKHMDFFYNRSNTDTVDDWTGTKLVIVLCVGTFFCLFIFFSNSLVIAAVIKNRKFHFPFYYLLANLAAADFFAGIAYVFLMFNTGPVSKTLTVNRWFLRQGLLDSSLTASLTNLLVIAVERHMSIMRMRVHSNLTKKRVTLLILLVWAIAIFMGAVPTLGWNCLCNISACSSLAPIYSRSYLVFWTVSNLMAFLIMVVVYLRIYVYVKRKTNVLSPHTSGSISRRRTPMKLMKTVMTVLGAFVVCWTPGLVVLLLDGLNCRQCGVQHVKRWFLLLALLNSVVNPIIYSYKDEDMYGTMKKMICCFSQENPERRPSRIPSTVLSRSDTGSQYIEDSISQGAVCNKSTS

Experiment [2] addresses T1, Human LPA1. Briefly: LPA1 calcium flux assay. To be noted: read-out: Ca Flux LPA1 IC50; human LPA1 expressing CHO cells; stimulated with 10 nM LPA. The protocol: Establishment of a CHO Cell Line Stably Expressing Human LPA1
A 1.1 kb cDNA encoding the human LPA1 receptor is cloned from human lung. Human lung RNA (Clontech Laboratories, Inc. USA) is reverse transcribed using the RETROscript kit (Ambion, Inc.) and the full-length cDNA for human LPA1 is obtained by PCR of the reverse transcription reaction. The nucleotide sequence of the cloned human LPA1 is determined by sequencing and is confirmed to be identical to the published human LPA1 sequence (An et al. Biochem. Biophys. Res. Commun. 231:619 (1997). The cDNA is cloned into the pcDNA5 pcDNA5/FRT expression plasmid and is transfected in CHO cells using lipofectamine 2000 (Invitrogen Corp., USA). Clones stably expressing human LPA1 are selected using hygromycin and identified as cells that show Ca-influx in response to LPA.
(§1) LPA1 and LPA3 Calcium Flux Assays
Human LPA1 or LPA3 expressing CHO cells were seeded at 20,000-45,000 cells per well in a 96-well poly-D-lysine coated plate one or two days before the assay. Prior to the assay, the cells were washed once with PBS and then cultured in serum-free media overnight. On the day of the assay, a calcium indicator dye (Calcium 4, Molecular Devices) in assay buffer (HBSS with Ca^2+ and Mg^2+ and containing 20 mM Hepes and 0.3% fatty-acid free human serum albumin) was added to each well and incubation continued for 1 hour at 37° C. 10 μl of test compounds in 2.5% DMSO were added to the cells and incubation continued at room temperature for 30 minutes. Cells were then stimulated by the addition of 10 nM LPA and intracellular Ca^2+ measured using the Flexstation 3 (Molecular Devices). IC50s were determined using Graphpad prism analysis of drug titration curves.
(Calcium assays in cells follow changes in intracellular calcium, usually with a dye or a luminescent sensor.)

A further experiment deals with Human LPA3 (Homo sapiens, UniProt Q9UBY5). Briefly: LPA3 calcium flux assay. As to conditions: read-out: Ca Flux LPA3 IC50; human LPA3 expressing CHO cells; stimulated with 10 nM LPA. The protocol:
Establishment of a CHO Cell Line Stably Expressing Human LPA3
A vector containing the human LPA3 receptor cDNA is obtained from the Missouri S&T cDNA Resource Center (www.cdna.org). The full-length cDNA fragment for human LPA3 is obtained by PCR from the vector. The nucleotide sequence of the cloned human LPA3 is determined by sequencing and is confirmed to be identical to the published human LPA3 sequence (NCBI accession number NM_012152). The cDNA is cloned into the pcDNA5 pcDNA5/FRT expression plasmid and is transfected in CHO cells using lipofectamine 2000 (Invitrogen Corp., USA). Clones stably expressing human LPA3 are selected using hygromycin and identified as cells that show Ca-influx in response to LPA.
as §1
Human LPA1 or LPA3 expressing CHO cells were seeded at 20,000-45,000 cells per well in a 96-well poly-D-lysine coated plate one or two days before the assay. Prior to the assay, the cells were washed once with PBS and then cultured in serum-free media overnight. […] Cells were then stimulated by the addition of 10 nM LPA and intracellular Ca^2+ measured using the Flexstation 3 (Molecular Devices). IC50s were determined using Graphpad prism analysis of drug titration curves.

Some results are limits rather than exact numbers.

By EC50 is commonly meant the concentration needed to bring the measured effect to its halfway point. For `C[C@@H](OC(=O)Nc1c(-c2ccc(-c3ccc(C4(C(=O)O)CC4)cc3)cc2)nnn1C)c1ccccc1`, the EC50 at Human LPA1 [1] was under 50 nM. Usually IC50 stands for the point on the concentration scale where inhibition reaches its midpoint. Regarding `C[C@@H](OC(=O)Nc1c(-c2ccc(-c3ccc(C4(C(=O)O)CC4)cc3)cc2)[nH]c2ccccc12)c1ccccc1Cl`, the EC50 on Human LPA1 [1] is over 500 nM. On Human LPA1 [2], the IC50 was over 500 nM. Consider `Cc1noc(-c2ccc(-c3ccc(C4(C(=O)O)CC4)cc3)cc2)c1NC(=O)O[C@H](C)c1ccccc1Cl`, for which the EC50 at Human LPA1 [1] was under 50 nM. The IC50 on Human LPA1 [2] fell in the range of 50 to 500 nM. For the compound `Cc1nsc(-c2ccc(-c3ccc(C(C)(C)C(=O)O)cc3)cc2)c1NC(=O)O[C@H](C)c1ccccc1`, the EC50 on Human LPA1 [1] was in the range of 50 to 500 nM. Same read-out and setting: the figure for `CCOC(=O)Cc1ccc(-c2ccc(-c3onc(C)c3NC(=O)O[C@H](C)c3ccccc3Cl)cc2)c2ccccc12` is 50 to 500 nM.

Turning to `Cc1nsc(-c2ccc(-c3ccc(C4(C(=O)O)CC4)cc3)cc2)c1NC(=O)O[C@H](C)c1ccccc1Cl`, the EC50 at Human LPA1 [1] was under 50 nM. Further, the IC50 on Human LPA1 [2] was 50 to 500 nM; on Human LPA3 it was over 500 nM. On to `C[C@@H](OC(=O)Nc1c(-c2ccc(-c3ccc(C4(C(=O)O)CC4)cc3)cc2)nc2ccccn12)c1ccccc1`, for which the EC50 at Human LPA1 [1] is under 50 nM. Same read-out and setting: for `Cc1snc(-c2ccc(-c3ccc(CC(=O)O)cc3)cc2)c1NC(=O)O[C@H](C)c1ccccc1Cl` the value was under 50 nM; for `Cc1onc(-c2ccc(-c3ccc(CC(=O)O)cc3)cc2)c1NC(=O)O[C@H](C)c1ccccc1Cl`, under 50 nM. The same measure, in the same setting: the figure for `Cc1noc(-c2ccc(-c3ccc(C4(C(=O)OC5OC(C(=O)O)C(O)C(O)C5O)CC4)cc3)cc2)c1NC(=O)O[C@H](C)c1ccccc1` (stereo partly drawn) is 50 to 500 nM. On to `C[C@@H](OC(=O)Nc1c(-c2ccccc2)noc1-c1ccc(-c2ccc(C3(C(=O)O)CC3)cc2)cc1)c1ccccc1Cl`, for which the EC50 at Human LPA1 [1] was 50 to 500 nM. For the same compound, the IC50 on Human LPA1 [2] was over 500 nM. Turning to `C[C@@H](OC(=O)Nc1cnnn1-c1ccc(-c2ccc(C3(C(=O)O)CC3)cc2)cc1)c1ccccc1Cl`, the EC50 on Human LPA1 [1] is under 50 nM. The IC50 at Human LPA1 [2] is under 50 nM.

On to `C[C@@H](OC(=O)Nc1cccnc1Oc1ccc(-c2ccc(CC(=O)O)cc2)cc1)c1ccccc1Cl`, for which the EC50 on Human LPA1 [1] was over 500 nM. Also, the IC50 on Human LPA1 [2] was over 500 nM. As for `O=C(O)Cc1ccc(C2CCN(C(=O)CCCNC(=O)OCc3ccccc3)CC2)cc1`, the EC50 at Human LPA1 [1] was over 500 nM. Regarding `C[C@@H](OC(=O)Nc1ocnc1-c1ccc(-c2ccc(C3(C(=O)O)CC3)cc2)cc1)c1ccccc1`, at Human LPA1 [1], the EC50 was under 50 nM. Also, the IC50 on Human LPA1 [2] was under 50 nM. With `Cc1[nH]nc(-c2ccc(-c3ccc(CC(=O)O)cc3)cc2)c1NC(=O)O[C@H](C)c1ccccc1Cl`, on Human LPA1 [1], the EC50 was over 500 nM. On the same count and under the same terms, for `C[C@@H](OC(=O)Nc1c(-c2ccc(-c3ccc(C4(C(=O)O)CC4)cc3)cc2)cnn1C1CC1)c1ccccc1` the value was under 50 nM.

Regarding `Cc1noc(-c2ccc(-c3ccc(CC(=O)O)c4c3CCC4)cc2)c1NC(=O)O[C@H](C)c1ccccc1Cl`, at Human LPA1 [1], the concentration for a half-maximal effect (EC50) was under 50 nM. The IC50 was under 50 nM on Human LPA1 [2] and 50 to 500 nM on Human LPA3. For the compound `C[C@@H](OC(=O)Nc1c(-c2ccc(-c3ccc(C4(C(=O)O)CC4)cc3)cc2)sc2nc(C(F)(F)F)ccc12)c1ccccc1`, at Human LPA1 [1], the EC50 was over 500 nM. Consider `O=C(O)Cc1ccc(C2CCN(C(=O)CNC(=O)OCc3ccccc3)CC2)cc1`, for which the EC50 on Human LPA1 [1] is over 500 nM.

Source of the values: US8975235B2, “Lysophosphatidic acid receptor antagonists” (InterMune, Inc., priority 2011, dated 2015).
